Among the data in PubChem BioAssay AID429 (Emory University Molecular Libraries Screening Center, 2006) are inhibition values, retold here.

Several values for one entry are separate records, joined by “and”; a condition that tells them apart may be missing. Identical values can stand only once. Only a part is listed here, and it is no random draw. Activity calls are given as the source filed them.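 The calls were made as follows: active = inhibition above 50%; inactive = the rest.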

The assay addresses Heat shock protein HSP 90-alpha (Homo sapiens) (UniProt P07900). In words: tumor Hsp90 inhibitors, primary screen, cell lysate, fluorescence polarization, NCI-N417 lysate (AID 429).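 Also: 0% = tracer plus lysate wells and 100% = tracer alone without lysate.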 To be noted: NCI-N417 lysate Hsp90, Cy3B-geldanamycin FP displacement; at 30 µM; hits give high values.
As to `O=C(OC1CN2CCC1CC2)c1cccc(Cl)c1` (stereo not given), the inhibition is inactive: -0.97%.
In the case of `O=P(Nc1nccs1)(c1ccccc1)c1ccccc1`, the inhibition is inactive: -2.12%.
On to `c1nnnn1CCn1cnnn1`, for which the inhibition is inactive: -0.72%.
The figure for `O=P1(Nc2nc3ccc(Cl)cc3s2)COc2ccccc2O1` (stereo not given) is inactive: -0.3%; for `CN(C(=O)Cc1ccc(Cl)c(Cl)c1)[C@@H]1CCCC[C@@H]1N1CCCC1` it is inactive: -1.21%.
On to `CN(C(=O)Cc1ccc(Cl)c(Cl)c1)[C@H]1CCCC[C@@H]1N1CCCC1`, for which the inhibition was inactive: 0.1% and inactive: 0.96%.
For `Cc1c2non([O-])c-2c(C)[n+](=O)[n+]1[O-]`, the inhibition is inactive: 1.42%.
As to `CCc1nc2c(n1)c1c(non1O)c1c2no[n+]1[O-]`, the inhibition is inactive: -5.64%.
To `COP1(=S)c2c(C)nn(CCC#N)c2N=C(c2ccc(F)cc2)N1C` (stereo not given) belongs inactive: -0.66%; to `O=C(COc1ccccc1)OC1CN2CCC1CC2` (stereo not given), inactive: -0.75%.
For `O=C(OC1CN2CCC1CC2)C12CC3CC(CC(C3)C1)C2` (stereo not given), the inhibition was inactive: 1.35%.
On to `CCOP1(=S)c2c(C)nn(CCC#N)c2N=C(c2ccc(F)cc2)N1C` (stereo not given), for which the inhibition is inactive: 1.57%.
As for `CN(C(=O)Cc1ccccc1)[C@@H]1CC[C@]2(CCCO2)C[C@H]1N1CCCC1`, the inhibition was inactive: 0.96%.
With `O=P(Nc1nccs1)(c1ccccc1)c1nc2ccccc2s1` (stereo not given), the inhibition is inactive: -4%.
As to `CCOP1(=S)c2c(C)nn(CCC#N)c2N=C(c2ccccc2F)N1C` (stereo not given), the inhibition was inactive: -2.33%.
Regarding `CN(C(=O)Cc1ccc(Cl)c(Cl)c1)[C@@H]1CC[C@]2(CCCO2)C[C@H]1N1CCCC1`, the inhibition was inactive: 1.52%.
The figure for `Cc1cccc(OCC(=O)OC2CN3CCC2CC3)c1` (stereo not given) is inactive: -5.48%; for `CN(C(=O)Cc1ccc(Cl)c(Cl)c1)[C@@H]1CCCC[C@H]1N1CCCC1` it is inactive: -0.71%; for `O=P1(Nc2ccccn2)COc2ccccc2OC1` it is inactive: 1.89%.
Take `CN(CCCl)Cc1cc(Cl)c(NC2=NCCN2)c(Cl)c1`: the inhibition is inactive: -3.59%.
Take `Clc1n[nH]nc1-c1nn[nH][15n]1`: the inhibition was inactive: -1.77%.
To `O=P1(Nc2ncccn2)COc2ccccc2OC1` belongs inactive: -5.79%.
Consider `O=P1(Nc2ccc(Br)cn2)COc2ccccc2OC1`, for which the inhibition is inactive: 0.25%.
Turning to `Cc1ccc(OCC(=O)OC2CN3CCC2CC3)cc1` (stereo not given), the inhibition was inactive: 2.14%.
Consider `Cc1nn(-c2ccccc2)c2c1P(=O)(N1CCOCC1)N(C)C(c1ccccc1)=N2` (stereo not given), for which the inhibition was inactive: 2.69%.
